Measured values: ChEMBL document CHEMBL2086370 (J Med Chem, 2012)

The chains behind the UniProt entries cited, without tags or fusion partners. Where a name states a change or a piece, a line headed by the entry shows the natural chain unless it says otherwise.
UniProt P41146: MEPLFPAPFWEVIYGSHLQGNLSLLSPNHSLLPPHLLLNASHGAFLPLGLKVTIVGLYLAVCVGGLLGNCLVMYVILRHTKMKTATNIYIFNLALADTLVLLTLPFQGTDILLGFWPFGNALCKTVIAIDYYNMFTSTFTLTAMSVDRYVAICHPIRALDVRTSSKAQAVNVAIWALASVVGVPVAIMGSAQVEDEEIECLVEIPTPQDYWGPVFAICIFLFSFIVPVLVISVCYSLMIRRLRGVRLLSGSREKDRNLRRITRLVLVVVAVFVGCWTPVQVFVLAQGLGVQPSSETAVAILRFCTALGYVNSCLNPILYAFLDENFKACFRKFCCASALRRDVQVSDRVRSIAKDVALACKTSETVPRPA

The compounds below were run on Rattus norvegicus (assay: In vivo receptor occupancy of NOP receptor in po dosed Harlan Sprague-Dawley rat hypothalamus co-administered with unlabeled tracer compound at 3 ug/kg, iv).
Assay type: functional

Structure (SMILES)	Activity
Cc1cccc2c1CC[C@H](CN1CCC(c3c(Cl)cccc3Cl)CC1)C[C@@H]2O	Dose-dependent effect

These compounds were tested against Nociceptin receptor (Homo sapiens) (UniProt P41146) (assay: Antagonist at against human cloned NOP receptor expressed in CHO cell membranes after 30 mins by [35S]GTPgammaS binding assay).

Structure (SMILES)	Kb [nM]
CN(C)C(=O)C(Cc1c(F)cccc1F)CN1CCC2(CC1)OCCc1ccsc12 (racemic)	> 10
NC(=O)C(Cc1ccccc1Cl)CN1CCC2(CC1)OCCc1cc(Cl)sc12 (stereo not drawn)	0.167
CN(C(=O)C(Cc1ccccc1Cl)CN1CCC2(CC1)OCCc1cc(F)sc12)C1CC1 (single isomer, unassigned; (-))	0.251
CN(C)C(=O)[C@@H](Cc1ccccc1F)CN1CCC2(CC1)OCCc1cc(F)sc12.O=C(O)C(O)C(O)C(=O)O	0.305
CN(C)C(=O)C(Cc1ccccc1)CN1CCC2(CC1)OCCc1ccsc12 (stereo not drawn)	4.12
ClCC(Cc1ccccc1Cl)CN1CCC2(CC1)OCCc1ccsc12 (stereo not drawn)	> 40
CNC(=O)C(Cc1ccccc1F)CN1CCC2(CC1)OCCc1cc(Cl)sc12 (single isomer, unassigned; (-))	0.288
CN(C)C(=O)C(Cc1ccccc1F)CN1CCC2(CC1)OCCc1ccsc12 (racemic)	1.71
COCC(Cc1ccccc1Cl)CN1CCC2(CC1)OCCc1ccsc12 (stereo not drawn)	> 40
CNC(=O)C(Cc1ccccc1Cl)CN1CCC2(CC1)OCCc1cc(Cl)sc12 (stereo not drawn)	0.412
CN(C)C(=O)C(CN1CCC2(CC1)OCCc1cc(F)sc12)Cn1cccn1.O=C(O)C(O)C(O)C(=O)O (single isomer, unassigned; (+))	0.225
CN(C)C(=O)C(Cc1ccccc1Cl)CN1CCC2(CC1)OCCc1cc(F)sc12 (single isomer, unassigned; (+))	0.161
N#CC(Cc1ccccc1Cl)CN1CCC2(CC1)OCCc1ccsc12 (stereo not drawn)	> 40
CN(C)C(=O)C(Cc1ccccc1F)CN1CCC2(CC1)OCCc1cc(Cl)sc12.O=C(O)C(O)C(O)C(=O)O (single isomer, unassigned; (+))	0.239
CN(C)C(=O)C(Cc1ccccc1F)CN1CCC2(CC1)OCCc1cc(F)sc12 (stereo not drawn)	0.698
CN(C)C(=O)C(Cc1ccccn1)CN1CCC2(CC1)OCCc1ccsc12 (stereo not drawn)	> 10
CN(C)C(=O)C(Cc1cscn1)CN1CCC2(CC1)OCc1ccc(F)cc12 (stereo not drawn)	1.22
FCC(Cc1ccccc1Cl)CN1CCC2(CC1)OCCc1ccsc12 (stereo not drawn)	> 10
CN(C(=O)C(Cc1ccccc1F)CN1CCC2(CC1)OCCc1cc(F)sc12)C1CC1 (single isomer, unassigned; (-))	0.085
CN(C)C(=O)C(Cc1ccccc1Cl)CN1CCC2(CC1)OCCc1cc(Cl)sc12.O=C(O)C(O)C(O)C(=O)O (single isomer, unassigned; (-))	0.543
COc1ccccc1CC(CN1CCC2(CC1)OCCc1ccsc12)C(=O)N(C)C (stereo not drawn)	> 10

Each compound was assayed against Nociceptin receptor (Homo sapiens) (UniProt P41146) (assay: Agonist activity at human cloned NOP receptor expressed in CHO cell membranes after 30 mins by [35S]GTPgammaS binding assay relative to nociceptin).

Structure (SMILES)	Efficacy [%]
COC(=O)CN1CN(c2ccccc2)C2(CCN(Cc3cccc4ccccc34)CC2)C1=O	103
